Experiment [1] deals with T1, PRMT4 (Homo sapiens, UniProt Q86X55).
T1 sequence (Q86X55 1-608): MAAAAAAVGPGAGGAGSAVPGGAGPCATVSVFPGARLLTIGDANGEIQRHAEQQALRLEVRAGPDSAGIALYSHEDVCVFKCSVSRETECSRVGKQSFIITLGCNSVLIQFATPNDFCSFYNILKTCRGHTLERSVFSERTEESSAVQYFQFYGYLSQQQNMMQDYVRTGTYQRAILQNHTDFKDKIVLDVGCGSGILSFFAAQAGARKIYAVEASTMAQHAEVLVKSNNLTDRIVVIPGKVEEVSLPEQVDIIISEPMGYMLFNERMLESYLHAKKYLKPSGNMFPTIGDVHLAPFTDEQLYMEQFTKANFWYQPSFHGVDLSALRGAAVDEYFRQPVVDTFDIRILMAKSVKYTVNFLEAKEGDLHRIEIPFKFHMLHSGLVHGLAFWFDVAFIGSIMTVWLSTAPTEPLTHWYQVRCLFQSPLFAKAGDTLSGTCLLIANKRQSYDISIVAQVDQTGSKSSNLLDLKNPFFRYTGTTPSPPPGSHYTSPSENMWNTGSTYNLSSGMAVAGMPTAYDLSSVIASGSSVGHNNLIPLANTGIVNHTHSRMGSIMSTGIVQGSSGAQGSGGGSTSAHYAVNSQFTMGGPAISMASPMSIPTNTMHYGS
Nature of the experiment: Differential static light scattering (DSLS) binding.

The target in experiment [2] is T1, PRMT4. Nature of the experiment: PRMT4 methyltransferase scintillation proximity assay. Type of experiment: biochemical. Further details: 1–608; made in house. (SPA uses beads or plates that emit light when radiolabelled molecules are held near them.)

“Also recorded” adds a separate entry of the source.

On to `COCCN1CCC(c2cc(CN(C)C(=O)c3cccc(Oc4ccccc4)c3)ccn2)CC1` [TP-064N, N-((2-(1-(2-methoxyethyl)piperidin-4-yl)pyridin-4-yl)methyl)-N-methyl-3-phenoxybenzamide], for which, at PRMT4 [1], the “binding to PRMT4 by DSLS” value was “No binding; also recorded: not observed”. The “effect on PRMT4 activity” value at PRMT4 [2] is reported as “no effect”.
